The values below are quoted from earlier work in publication PMC9132125 (Journal of natural products, 2016).

The term IC50 denotes the point on the concentration scale where inhibition reaches its midpoint.

The test system of this series is GSK-3β. Particulars: read-out: GSK-3β IC50; previously published; cited from earlier work.

On to `Cl.Cl.O=C1Nc2cc(Br)ccc2/C1=C1/Nc2ccccc2/C1=N\OCCN1CCNCC1` [compound 22], for which the IC50 was 3.3 nM.
